Biological target: human recombinant JAK2 kinase domain (JH1) (Homo sapiens (Human), UniProt O60674)
Assay: JAK2 kinase domain enzymatic activity assay (HTRF)
Type: biochemical
Conditions: 2.5 μM ATP in substrate solution

By UniProt entry, the sequences of proteins in these tests, tags left out. Residues count along the entry.
UniProt O60674, 849-1124: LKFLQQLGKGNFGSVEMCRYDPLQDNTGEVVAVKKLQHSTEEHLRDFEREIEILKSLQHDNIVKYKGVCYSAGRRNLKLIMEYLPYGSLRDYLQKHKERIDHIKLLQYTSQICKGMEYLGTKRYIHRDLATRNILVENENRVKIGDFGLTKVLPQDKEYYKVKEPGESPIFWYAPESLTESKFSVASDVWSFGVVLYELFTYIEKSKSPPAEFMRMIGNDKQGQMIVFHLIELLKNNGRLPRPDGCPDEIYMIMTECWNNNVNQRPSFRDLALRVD

**Q.** `[2H]C([2H])([2H])NC(=O)c1nnc(NC(=O)C2CC2)cc1Nc1cccc(-c2ncn(C([2H])([2H])[2H])n2)c1OC` [Compound 1, 6-(cyclopropanecarboxamido)-4-((2-methoxy-3-(1-(methyl-d3)-1H-1,2,4-triazol-3-yl)phenyl)amino)-N-(methyl-d3)pyridazine-3-carboxamide] was tested. Which IC50 did it give?
**A.** 2300 nM

**Q.** `[2H]C([2H])([2H])n1cnc(-c2cccc(Nc3cc(NC(=O)C4CC4)nnc3C(=O)NC)c2OC)n1` [Compound 2, 6-(cyclopropanecarboxamido)-4-((2-methoxy-3-(1-(methyl-d3)-1H-1,2,4-triazol-3-yl)phenyl)amino)-N-methylpyridazine-3-carboxamide] was tested. Which IC50 did it give?
**A.** 2200 nM

**Q.** Which IC50 does the source give for `[2H]C([2H])([2H])NC(=O)c1nnc(NC(=O)C2CC2)cc1Nc1cccc(-c2ncn(C)n2)c1OC([2H])([2H])[2H]` [Compound 4, 6-(cyclopropanecarboxamido)-4-((2-(methoxy-d3)-3-(1-methyl-1H-1,2,4-triazol-3-yl)phenyl)amino)-N-(methyl-d3)pyridazine-3-carboxamide] here?
**A.** 2300 nM
